# Reference: IntAct's records for PubMed 20856200
# B1: RAC-alpha serine/threonine-protein kinase (Homo sapiens), P31749 (parent)
# chain: MSDVAIVKEGWLHKRGEYIKTWRPRYFLLKNDGTFIGYKERPQDVDQREAPLNNFSVAQCQLMKTERPRPNTFIIRCLQWTTVIERTFHVETPEEREEWTTAIQTVADGLKKQEEEEMDFRSGSPSDNSGAEEMEVSLAKPKHRVTMNEFEYLKLLGKGTFGKVILVKEKATGRYYAMKILKKEVIVAKDEVAHTLTENRVLQNSRHPFLTALKYSFQTHDRLCFVMEYANGGELFFHLSRERVFSEDRARFYGAEIVSALDYLHSEKNVVYRDLKLENLMLDKDGHIKITDFGLCKEGIKDGATMKTFCGTPEYLAPEVLEDNDYGRAVDWWGLGVVMYEMMCGRLPFYNQDHEKLFELILMEEIRFPRTLGPEAKSLLSGLLKKDPKQRLGGGSEDAKEIMQHRFFAGIVWQHVYEKKLSPPFKPQVTSETDTRYFDEEFTAQMITITPPDQDDSMECVDSERRPHFPQFSYSASGTA
# Variants of: B1
# Settings: with vime_human VIM
row,effect of a mutation on the interaction,Variant
1,decreasing interaction,MSDVAIVKEGWLHKRGEYIKTWRPRYFLLKNDGTFIGYKERPQDVDQREAPLNNFSVAQCQLMKTERPRPNTFIIRCLQWTTVIERTFHVETPEEREEWTTAIQTVADGLKKQEEEEMDFRSGSPSDNSGAEEMEVSLAKPKHRVTMNEFEYLKLLGKGTFGKVILVKEKATGRYYAMAILKKEVIVAKDEVAHTLTENRVLQNSRHPFLTALKYSFQTHDRLCFVMEYANGGELFFHLSRERVFSEDRARFYGAEIVSALDYLHSEKNVVYRDLKLENLMLDKDGHIKITDFGLCKEGIKDGATMKAFCGTPEYLAPEVLEDNDYGRAVDWWGLGVVMYEMMCGRLPFYNQDHEKLFELILMEEIRFPRTLGPEAKSLLSGLLKKDPKQRLGGGSEDAKEIMQHRFFAGIVWQHVYEKKLSPPFKPQVTSETDTRYFDEEFTAQMITITPPDQDDSMECVDSERRPHFPQFAYSASGTA [K179A;T308A;S473A]
